The text below walks through data of patent US20250248979A1, “NOVEL GPX4 INHIBITORS AND USES THEREOF” (THE TRUSTEES OF COLUMBIA UNIVERSITY IN THE CITY OF NEW YORK, priority 2022, published 2025).

The test has as its target panel of 44 targets (GPCRs, ion channels, enzymes, transporters, nuclear receptors). Particulars: read-out: IC50 (M) Reference Compound (EC50 for agonist).

As a reminder, the IC50 is the concentration needed to halve the response being measured. For `CCOC(=O)c1ncn2c1CN(C)C(=O)c1cc(F)ccc1-2` [Flumazenil], the IC50 turned out to be 1.7e-08 M.
